Consider 46 compounds from US8999981B2, “3-amido-pyrrolo[3,4-C]pyrazole-5(1H, 4H,6H) carbaldehyde derivatives” (Pfizer Inc., priority 2007, dated 2015).

Sequences of proteins named here, by UniProt entry; tags and fusion partners are left off. A line that says so, or that is headed by a name, gives the form on record, which may keep a tag or linker. Residues count along the entry.
UniProt P05771, 1-621 with tags or gaps limits assumed: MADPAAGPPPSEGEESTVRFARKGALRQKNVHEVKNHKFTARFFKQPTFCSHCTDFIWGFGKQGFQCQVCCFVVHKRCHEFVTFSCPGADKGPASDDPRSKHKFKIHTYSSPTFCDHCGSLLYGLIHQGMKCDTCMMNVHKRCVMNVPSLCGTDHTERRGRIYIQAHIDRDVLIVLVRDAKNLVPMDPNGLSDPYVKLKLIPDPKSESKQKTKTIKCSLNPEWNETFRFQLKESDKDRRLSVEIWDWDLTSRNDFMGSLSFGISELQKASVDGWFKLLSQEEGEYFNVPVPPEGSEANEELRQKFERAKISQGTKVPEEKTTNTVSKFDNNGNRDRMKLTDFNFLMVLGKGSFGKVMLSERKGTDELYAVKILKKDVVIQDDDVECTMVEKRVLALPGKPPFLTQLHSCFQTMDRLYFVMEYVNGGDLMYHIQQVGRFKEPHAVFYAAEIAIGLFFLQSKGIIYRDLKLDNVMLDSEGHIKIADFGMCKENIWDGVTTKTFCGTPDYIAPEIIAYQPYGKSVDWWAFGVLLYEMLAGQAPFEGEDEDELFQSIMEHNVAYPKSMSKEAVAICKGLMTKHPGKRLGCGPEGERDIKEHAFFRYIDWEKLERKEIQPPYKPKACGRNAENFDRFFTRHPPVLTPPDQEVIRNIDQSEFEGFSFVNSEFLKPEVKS

Where two headings read alike, the source gives them in different places.

The assay addresses Protein Kinase C beta 2 (PKCβII) (Homo sapiens (Human), UniProt P05771). Description: PKCβII coupled PK/LDH spectrophotometric kinase assay. Format: biochemical. The note with it: read-out: PKCb Ki.
The mark [1] stands for this setting: apparent Ki, ATP-competitive model (Morrison equation), 0.1 mM ATP, 30° C.

In the case of `COCCCN1C[C@H](C)N(C(=O)N2Cc3c(NC(=O)c4ccc(F)cc4F)n[nH]c3C2(C)C)C[C@H]1C` (relative stereo), the Ki was 131 nM.
Take `C[C@@H]1CN(C(=O)N2Cc3c(NC(=O)c4cncn4C)n[nH]c3C2(C)C)[C@@H](C)CN1CC1CCOCC1`: the Ki under setting [1] was 47.9 nM.
On the same count and under the same terms, with `C[C@@H]1CN(C(=O)N2Cc3c(NC(=O)c4cn(C5CCC5)cn4)n[nH]c3C2(C)C)[C@@H](C)CN1CC1CCOCC1` the figure was 14.1 nM; with `COCCCN1C[C@H](C)N(C(=O)N2Cc3c(NC(=O)c4ccccn4)n[nH]c3C2(C)C)C[C@H]1C`, 19.5 nM.
As for `CCCN1C[C@H](C)N(C(=O)N2Cc3c(NC(=O)c4ccc(F)cc4F)n[nH]c3C2(C)C)C[C@H]1C` (relative stereo), the Ki stood at 87.3 nM.
The same measure, in the same setting: under `CCCN1C[C@H](C)N(C(=O)N2Cc3c(NC(=O)c4ccccn4)n[nH]c3C2(C)C)C[C@H]1C` stands 14.6 nM.
For the compound `C[C@@H]1CN(C(=O)N2Cc3c(NC(=O)c4ccc(F)cc4F)n[nH]c3C2(C)C)[C@@H](C)CN1CC1CCCC1` (relative stereo), the Ki under setting [1] turned out to be 81.3 nM.
In the case of `COCCCN1C[C@H](C)N(C(=O)N2Cc3c(NC(=O)c4ccccn4)n[nH]c3C2(C)C)C[C@H]1C` (relative stereo), the Ki under setting [1] is 23.8 nM.
Turning to `CC1(C)c2[nH]nc(NC(=O)c3ccccc3F)c2CN1C(=O)N1C[C@@H]2CCCN2C[C@@H]1Cc1ccccc1`, the Ki under setting [1] turned out to be 53.2 nM.
As to `CCN1C[C@H](C)N(C(=O)N2Cc3c(NC(=O)c4ccc(F)cc4F)n[nH]c3C2(C)C)C[C@H]1C` (relative stereo), the Ki under setting [1] was determined as 83.1 nM.
Consider `C[C@@H]1CN(C(=O)N2Cc3c(NC(=O)c4ccccn4)n[nH]c3C2(C)C)[C@@H](C)CN1C` (relative stereo), for which the Ki came to 28.2 nM.
For the compound `C[C@@H]1CN(C(=O)N2Cc3c(NC(=O)c4cccc(F)c4)n[nH]c3C2(C)C)[C@@H](C)CN1CC1CCOCC1`, the Ki under setting [1] was less than 10 nM.
The same measure, in the same setting: with `C[C@@H]1CN(C(=O)N2Cc3c(NC(=O)c4ccc(F)cc4F)n[nH]c3C2(C)C)[C@@H](C)CN1CC1CC1` (relative stereo) the figure was 68.9 nM.
Same read-out and setting: under `C[C@@H]1CN(C(=O)N2Cc3c(NC(=O)c4ccccc4)n[nH]c3C2(C)C)[C@@H](C)CN1CC1CCOCC1` stands 30.1 nM.
Turning to `CCc1nc(C(=O)Nc2n[nH]c3c2CN(C(=O)N2C[C@@H](C)N(CC4CCOCC4)C[C@@H]2C)C3(C)C)co1`, under setting [1], the Ki worked out at 14.9 nM.
Take `CCCN1C[C@H](C)N(C(=O)N2Cc3c(NC(=O)c4ccccn4)n[nH]c3C2(C)C)C[C@@H]1C`: the Ki was 52.5 nM.
For `Cc1cccc(C(=O)Nc2n[nH]c3c2CN(C(=O)N2C[C@@H](C)N(CC4CCOCC4)C[C@@H]2C)C3(C)C)n1`, under setting [1], the Ki is 15 nM.
Take `CC(C)N1C[C@H](C)N(C(=O)N2Cc3c(NC(=O)c4ccccn4)n[nH]c3C2(C)C)C[C@H]1C` (relative stereo): the Ki was found to be 69.2 nM.
As to `CCCCN1C[C@H](C)N(C(=O)N2Cc3c(NC(=O)c4ccc(F)cc4F)n[nH]c3C2(C)C)C[C@H]1C` (relative stereo), the Ki under setting [1] came out at 54.9 nM.
Same read-out and setting: with `C[C@@H]1CN(C(=O)N2Cc3c(NC(=O)c4ccc(F)cc4)n[nH]c3C2(C)C)[C@@H](C)CN1CC1CCOCC1` the figure was 11.2 nM; with `Cc1nc(C(=O)Nc2n[nH]c3c2CN(C(=O)N2C[C@@H](C)N(CC4CCOCC4)C[C@@H]2C)C3(C)C)cs1`, 12.8 nM.
Regarding `C[C@@H]1CN(C(=O)N2Cc3c(NC(=O)c4coc(C5CC5)n4)n[nH]c3C2(C)C)[C@@H](C)CN1CC1CCOCC1`, the Ki came to 15.7 nM.
Consider `CCCCN1C[C@H](C)N(C(=O)N2Cc3c(NC(=O)c4ccccn4)n[nH]c3C2(C)C)C[C@H]1C`, for which the Ki under setting [1] was 13.3 nM.
Still for that read-out and setting: with `C[C@@H]1CN(C(=O)N2Cc3c(NC(=O)c4ccccn4)n[nH]c3C2(C)C)[C@@H](C)CN1CC1CC1` (relative stereo) the figure was 19.1 nM.
On the same count and under the same terms, with `CCCN1C[C@H](C)N(C(=O)N2Cc3c(NC(=O)c4ccccn4)n[nH]c3C2(C)C)C[C@H]1C` (relative stereo) the figure was 39.5 nM; with `C[C@@H]1CN(C(=O)N2Cc3c(NC(=O)c4cccc(C#N)c4)n[nH]c3C2(C)C)[C@@H](C)CN1CC1CCOCC1`, 25.6 nM.
`C[C@@H](CO)CN1C[C@H](C)N(C(=O)N2Cc3c(NC(=O)c4ccccn4)n[nH]c3C2(C)C)C[C@H]1C`: the Ki came to 49.6 nM.
`Cc1ocnc1C(=O)Nc1n[nH]c2c1CN(C(=O)N1C[C@@H](C)N(CC3CCOCC3)C[C@@H]1C)C2(C)C`: the Ki under setting [1] was 117 nM.
Take `CN1CCN(C(=O)N2Cc3c(NC(=O)c4ccccc4)n[nH]c3C2(C)C)[C@@H](Cc2ccccc2)C1`: the Ki under setting [1] was determined as 189 nM.
Still for that read-out and setting: under `COc1ccc(C(=O)Nc2n[nH]c3c2CN(C(=O)N2C[C@@H](C)N(CC4CCOCC4)C[C@@H]2C)C3(C)C)nc1` stands less than 10 nM; under `C[C@@H]1CN(C(=O)N2Cc3c(NC(=O)c4ccc(F)cn4)n[nH]c3C2(C)C)[C@@H](C)CN1CC1CCOCC1`, 12.8 nM; under `COc1cccc(C(=O)Nc2n[nH]c3c2CN(C(=O)N2C[C@@H](C)N(CC4CCOCC4)C[C@@H]2C)C3(C)C)n1`, 46.7 nM.
`C[C@H](CO)CN1C[C@H](C)N(C(=O)N2Cc3c(NC(=O)c4ccccn4)n[nH]c3C2(C)C)C[C@H]1C`: the Ki was determined as 50.4 nM.
In the case of `COCCCN1C[C@H](C)N(C(=O)N2Cc3c(NC(=O)c4ccccn4)n[nH]c3C2(C)C)C[C@@H]1C`, under setting [1], the Ki was found to be 143 nM.
Still for that read-out and setting: with `Cc1ccccc1C(=O)Nc1n[nH]c2c1CN(C(=O)N1C[C@@H](C)N(CC3CCOCC3)C[C@@H]1C)C2(C)C` the figure was 67.1 nM; with `C[C@@H]1CN(C(=O)N2Cc3c(NC(=O)c4ccc(F)cc4F)n[nH]c3C2(C)C)[C@@H](C)CN1C1CCC1` (relative stereo), 74.2 nM; with `C[C@@H]1CN(C(=O)N2Cc3c(NC(=O)c4ccc(Cl)cn4)n[nH]c3C2(C)C)[C@@H](C)CN1CC1CCOCC1`, 11.9 nM.
The same measure, in the same setting: with `CCN1C[C@H](C)N(C(=O)N2Cc3c(NC(=O)c4ccccn4)n[nH]c3C2(C)C)C[C@@H]1C` the figure was 149 nM.
Regarding `CCn1ccc(C(=O)Nc2n[nH]c3c2CN(C(=O)N2C[C@@H](C)N(CC4CCOCC4)C[C@@H]2C)C3(C)C)n1`, under setting [1], the Ki stood at 26.9 nM.
For `C[C@@H]1CN(C(=O)N2Cc3c(NC(=O)c4ccc(C#N)cc4)n[nH]c3C2(C)C)[C@@H](C)CN1CC1CCOCC1`, under setting [1], the Ki worked out at 24.3 nM.
Same read-out and setting: under `Cc1cccc(C(=O)Nc2n[nH]c3c2CN(C(=O)N2C[C@@H](C)N(CC4CCOCC4)C[C@@H]2C)C3(C)C)c1` stands less than 10 nM.
`Cc1ccnc(C(=O)Nc2n[nH]c3c2CN(C(=O)N2C[C@@H](C)N(CC4CCOCC4)C[C@@H]2C)C3(C)C)c1`: the Ki under setting [1] turned out to be 21.7 nM.
As for `Cc1ccc(C(=O)Nc2n[nH]c3c2CN(C(=O)N2C[C@@H](C)N(CC4CCOCC4)C[C@@H]2C)C3(C)C)nc1`, the Ki is 26.4 nM.
For `CC(C)n1cnc(C(=O)Nc2n[nH]c3c2CN(C(=O)N2C[C@@H](C)N(CC4CCOCC4)C[C@@H]2C)C3(C)C)c1`, the Ki under setting [1] amounted to 23.8 nM.
Same read-out and setting: with `C[C@@H]1CN(C(=O)N2Cc3c(NC(=O)c4ccccn4)n[nH]c3C2(C)C)[C@@H](C)CN1CC1CC1` the figure was 13.3 nM.
Consider `CO[C@@H]1CN2C[C@H](C)N(C(=O)N3Cc4c(NC(=O)c5ccccn5)n[nH]c4C3(C)C)C[C@@H]2C1(C)C`, for which the Ki stood at 177 nM.
